Source: US20140335050A1, “METHODS, COMPOSITIONS, AND KITS FOR THE TREATMENT OF CANCER” (The General Hospital Corporation, priority 2011, published 2014)

Assays:
Assay type in all cases: cell-based, human
[1] = tested on: U-118 MG glioma cell line; assay: Antibody staining and flow cytometry (intracellular gp100; surface MHC Class I/II); conditions: for Class I MHC, geometric mean of surface staining (W6/32): U-118
Protocol: (§1) Cells were fixed with 1% formaldehyde, permeabilized with 0.1% saponin, stained with monoclonal antibodies to melanocyte antigens. Antibodies were obtained with specificity for: MART-1 from Vector Labs (Burlingame, Calif.); gp100 HMB45 from DakoCytomation (Carpinteria, Calif.) and then visualized with goat anti-mouse FITC-conjugated secondary antibody from Invitrogen (Fredrick, Md.). The level of EGFP was determined by flow cytometry of unfixed cells that were washed and resuspended in 1×PBS.
(§2) Cells were plated at a density of 1×10^5 in 1 ml of medium in a 24-well plate and cultured for varying times as indicated in results. Typically, 3 days of culture in the presence of Hsp90 inhibitors was optimal for the functional studies performed. After incubation, cells were collected by trypsinization and then evaluated by flow cytometry.
(§3) Intracellular staining and flow cytometric analyses of cytoplasmic Melan-A/MART-1, and gp100 expression were performed as described previously. Cells were fixed with 1% formaldehyde, permeabilized with 0.1% saponin, stained with monoclonal antibodies to melanocyte antigens. Antibodies were obtained with specificity for: Melan-A/MART-1 from Vector Labs (Burlingame, Calif.); gp100/HMB45 from DakoCytomation (Carpinteria, Calif.) and then visualized with goat anti-mouse FITC-conjugated secondary antibody from Invitrogen (Frederick, Md.). The level of EGFP was determined by flow cytometry of unfixed cells washed and resuspended in 1×PBS. Surface staining of MHC Class I was carried out using the antibody W6/32 on cells harvested with Cell Stripper from MediaTech Inc. (Manassas, Va.) and carried out on ice.
Cell were seeded at 1×10^6 cells in a T25 flask with 10 ml of media for the 4 day IFN-beta pre-treatments. Cells were then harvested and plated in 24 well plate at 1×10^5 cells per well in 1 ml of media for 3 day treatments.
(§4) For surface staining of HLA Class I and II antigens, cells were harvested using CellStripper™ from Mediatech (Manassas, Va.). All staining steps were performed on ice. Following a first incubation with antibody to Class I (W6/32) or Class II (L243) for 30 minutes. Stained cells were washed twice with cold PBS and then stained with a goat anti-mouse FITC secondary antibody to allow for quantitative analysis by flow cytometry. For evaluation of cytoplasmic antigens, including Melan-A/MART-1 and gp100, cells were first fixed in paraformaldehyde and permeabilized with saponin as previously described. Staining for cytoplasmic antigens was carried out at room temperature (22° C.).

[2] = tested on: Jurkat T cell lymphoma cells; assay: Surface antibody staining and flow cytometry (MHC Class I/II)
Protocol: as §3, §4

[3] = tested on: EBV-19 B cell lymphoma cells; assay: as above; conditions: three days, IFN-β 5000 Units/ml
Protocol: as §3, §4

[4] = tested on: MALME-3M melanoma cell line; assay: Antibody staining and flow cytometry (intracellular Melan-A/MART-1, gp100, TRP-2; surface MHC Class I)
Protocol: as §1, §2, §3

tumor cell lines = assay: MHC Class I and Class II surface staining, statements over a panel of tumor cell lines
Excerpt: Based on the results with 17-AAG, we also tested additional inhibitors of HSP90. […] An increase in the fluorescence staining indicates an increase in MHC Class I. The geometric mean fluorescence intensities of these flow histograms were used to generate Table 11. […] The level of MHC Class I expression increases between two to five fold with IFN-β treatment alone as expected. As shown previously the level of MHC Class I expression also increases between 2.5 to 4.5 fold with HSP90 inhibition.
This effect is observed with the use of three separate inhibitors of HSP90, 17-AEP a water soluble relative of 17-AAG which are relatives of the natural product geldanamycin, PU-H71, a purine derivative found to block HSP90 by competing with ATP binding, and CCT018159, an HSP90 inhibitor identified by drug screening. The combination treatments were carried using two methods. Both involve the pre-treatment of the melanoma tumor cells with IFN-β for four days, after which in one set of conditions the IFN-β is removed and the other set of conditions it is added again. Under both sets of conditions, a synergy between IFN-β and HSP90 inhibition is observed, incubated together higher levels of MHC Class I are observed than with either alone. Some of the increases seen were in excess of an order of magnitude (10-fold) more MHC Class I expression. The four day pretreatment without further IFN-β in combination with the HSP90 inhibitors was always lower than the four day pretreatment with addition of more IFN-β in combination with HSP90 inhibition. […] The MU89 cell line was also more responsive to the combination of IFN-β and HSP90 inhibitors than the other melanoma cell lines MUX and A375.
In addition, HLA Class II expression can also be induced or enhanced by Hsp90 inhibition on otherwise negative tumors cells. […]
For surface staining of HLA Class I and II antigens, cells were harvested using CellStripper™ from Mediatech (Manassas, Va.). […] Stained cells were washed twice with cold PBS and then stained with a goat anti-mouse FITC secondary antibody to allow for quantitative analysis by flow cytometry. […]

[5] = U-118 MG, 3 days, IFN-beta 5000 Units/ml, 17-AEP 1.0, PU-H71 0.3, CCT018159 10.0 μg/ml
[6] = MALME-3M, 3 days, IFN-beta 5000 Units/ml, 17-AEP 1.0, PU-H71 0.3, CCT018159 10.0 μg/ml
[7] = HeLa, MCF-7, U2-OS, MU-89, U118, Jurkat, Raji (Table 19)

B1: IFN-β: IFN-β-1a (Avonex) obtained from Biogen-Idec; SEQ ID NO: 1 (protein, listed as Homo sapiens)
chain: MSYNLLGFLQRSSNFQCQKLLWQLNGRLEYCLKDRMNFDIPEEIKQLQQFQKEDAALTIYEMLQNIFAIFRQDSSSTGWNETIVENLLANVYHQINHLKTVLEEKLEKEDFTRGKLMSSLHLKRYYGRILHYLKAKEYSHCAWTIVRVEILRNFYFINRLTGYLRN
modifications: (1)..(166) IFN-beta-1a
MHC Class II, geometric mean of surface staining (L2443) ([1]; Giloma-118, three days, IFN-β 5000 Units/ml, IFN-γ 100 ng/ml, PU-H71 0.3 mg/ml): 3
MHC Class I, geometric mean of surface staining (W6/32) ([1]; Giloma-118, three days, IFN-β 5000 Units/ml, IFN-γ 100 ng/ml, PU-H71 0.3): 62
L243 (MHC Class II surface staining) ([1]; U118, single agent): 2.7
W6/32 (MHC Class I surface staining) ([1]; U118, single agent): 299.2
Class I MHC, geometric mean of surface staining (W6/32) ([1]; 4 day IFN-β pre-treatment (5000 Units/ml), then 3 days with fresh IFN-β, with PU-H71 0.3 where labelled (label IFN-β: no inhibitor)): 81
Class I MHC, geometric mean of surface staining (W6/32) ([1]; 4 day IFN-β pre-treatment (5000 Units/ml), then 3 days without IFN-β, with PU-H71 0.3 where labelled (label IFN-β: no inhibitor)): 88
Class I MHC, geometric mean of surface staining (W6/32) ([1]; single agent for 3 days, no IFN-β pre-treatment, IFN-β 5000 Units/ml, PU-H71 0.3): 56
Class I, fold increase relative to untreated control [1, 5]: 2.6 fold
Class I, geometric mean of surface staining (W6/32) [1, 5]: 132
gp100, fold increase relative to untreated control [1, 5]: 1.1 fold
gp100, geometric mean of intracellular staining [1, 5]: 49
MHC Class I, geometric mean of surface staining (W6/32) ([1]; U-118 glioma, three days, IFN-β 5000 Units/ml, PU-H71 0.075-0.3): 62
L243 (MHC Class II surface staining) ([2]; single agent): 1.0
W6/32 (MHC Class I surface staining) ([2]; single agent): 31.1
MHC Class I, geometric mean of surface staining (W6/32) ([2]; three days, IFN-β 5000 Units/ml, IFN-γ 100 ng/ml, PU-H71 0.3 μg/ml): 31
MHC Class II, geometric mean of surface staining (L2443) ([2]; three days, IFN-β 5000 Units/ml, IFN-γ 100 ng/ml, PU-H71 0.3 mg/ml): 1
MHC Class I, geometric mean of surface staining (W6/32) ([2]; three days, IFN-β 5000 Units/ml, PU-H71 0.075-0.3 μg/ml): 65
MHC Class II, geometric mean of surface staining (L2443) ([3]; IFN-γ 100 ng/ml, PU-H71 0.3 mg/ml): 27
MHC Class I, geometric mean of surface staining (W6/32) ([3]; IFN-γ 100 ng/ml, PU-H71 0.3): 314
MHC Class I, geometric mean of surface staining (W6/32) ([3]; PU-H71 0.075-0.3): 219
Class I, fold increase relative to untreated control [4, 6]: 4.4 fold
Class I, geometric mean of surface staining (W6/32) [4, 6]: 194
MART-1, fold increase relative to untreated control [4, 6]: 1.1 fold
MART-1, geometric mean of intracellular staining [4, 6]: 130
TRP-2, fold increase relative to untreated control [4, 6]: 1.7 fold
TRP-2, geometric mean of intracellular staining [4, 6]: 179
gp100, fold increase relative to untreated control [4, 6]: 2.4 fold
gp100, geometric mean of intracellular staining [4, 6]: 534
MART-1, geometric mean of intracellular staining using anti-MART-1 ([4]; MALME-3M, IFN-β 5000 IU/ml for three days): 130
MHC Class I, geometric mean of surface staining (W6/32) ([4]; MALME, three days, IFN-β 5000 Units/ml): 194
Class I MHC expression over the tumor panel (tumor cell lines; [7]): induce significant increases
Class II MHC expression over the tumor panel (tumor cell lines; [7]): failed to induce
Increase of the level of MHC Class I expression (tumor cell lines; several melanoma cell lines, single agent): two to five
